The numbers were not newly measured in patent US20080077374A1, “Method for predicting biological, biochemical, biophysical or pharmacological characteristics of a substance” (priority 2006, published 2008), which cites them from elsewhere.

The subject of the data set is male Sprague Dawley rats. The following applies: SpragueDawley rats.

Consider `S=C=Nc1cccc2ccccc12` [ANIT], for which the Subclass/Indication result was “Toxicant”. For the same compound, the 2nd toxicity entry (refinement of the principal toxicity) is listed as “Direct r. &”.

Regarding `CO[C@@]12[C@H](COC(N)=O)C3=C(C(=O)C(C)=C(N)C3=O)N1C[C@@H]1N[C@@H]12` [Mitomycin], the Subclass/Indication entry is reported as “Toxin”. Further, the Diagnosis cc result (clinical chemistry) is “+”. Also, the Main target result (main toxicity target) is “Nephrotoxic”.
